Data published in US20100104555A1.

Amino acid sequences for entries named in this document (tags omitted). Residues count along the entry.
UniProt P26660, 192-750 limits assumed: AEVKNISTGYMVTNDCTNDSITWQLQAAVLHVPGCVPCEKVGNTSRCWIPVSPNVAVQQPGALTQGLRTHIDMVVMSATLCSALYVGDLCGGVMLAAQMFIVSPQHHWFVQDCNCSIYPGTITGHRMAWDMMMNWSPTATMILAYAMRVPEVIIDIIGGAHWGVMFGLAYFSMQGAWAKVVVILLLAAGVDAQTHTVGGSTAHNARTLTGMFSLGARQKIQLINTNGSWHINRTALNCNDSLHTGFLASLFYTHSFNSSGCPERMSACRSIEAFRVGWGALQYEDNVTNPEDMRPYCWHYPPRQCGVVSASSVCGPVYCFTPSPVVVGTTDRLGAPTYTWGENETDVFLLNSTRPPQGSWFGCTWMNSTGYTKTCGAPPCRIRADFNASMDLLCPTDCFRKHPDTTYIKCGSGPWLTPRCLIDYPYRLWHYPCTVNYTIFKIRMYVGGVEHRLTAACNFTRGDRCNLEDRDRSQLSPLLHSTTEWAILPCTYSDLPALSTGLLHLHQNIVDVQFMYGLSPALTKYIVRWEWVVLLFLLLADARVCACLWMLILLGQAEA

Columns and labels:
Experiment in all cases: cell-based or functional assay
[1] = target: E1E2 Env of HCV isolate H (genotype 1a) on HCVpp (hepatitis C virus genotype 1a, isolate H)
[2] = target: E1E2 Env of HCV isolate J6 (genotype 2a) on HCVpp (hepatitis C virus genotype 2a, isolate J6) (UniProt P26660)
[3] = target: E1E2 Env of HCV isolate OH8 (genotype 1b) on HCVpp (hepatitis C virus genotype 1b, isolate OH8)
[4] = target: E1E2 Env of HCV isolate UKN1B12.16 (genotype 1b) on HCVpp (hepatitis C virus genotype 1b, isolate UKN1B12.16)
[5] = target: E1E2 Env of HCV isolate UKN2A1.2 (genotype 2a) on HCVpp (hepatitis C virus genotype 2a, isolate UKN2A1.2)
[6] = target: E1E2 Env of HCV isolate UKN2B1.1 (genotype 2b) on HCVpp (hepatitis C virus genotype 2b, isolate UKN2B1.1)
[7] = target: E1E2 Env of HCV isolate UKN4.21.16 (genotype 4) on HCVpp (hepatitis C virus genotype 4, isolate UKN4.21.16)
[8] = target: E1E2 Env of HCV isolate UKN5.15.7 (genotype 5) on HCVpp (hepatitis C virus genotype 5, isolate UKN5.15.7)
[9] = target: VSV (control pseudotype virus)

Substance: MAb AR3A (antibody)
- Neutralizing activity (IC50), HCVpp [1]: 1 µg/mL
- Neutralizing activity (IC50), HCVpp [2]: 10 µg/mL
- Neutralizing activity (IC50), HCVpp [3]: 5 µg/mL
- Neutralizing activity (IC50), HCVpp [4]: 1 µg/mL
- Neutralizing activity (IC50), HCVpp [5]: 10 µg/mL
- Neutralizing activity (IC50), HCVpp [6]: 10 µg/mL
- Neutralizing activity (IC50), HCVpp [7]: 1 µg/mL
- Neutralizing activity (IC50), HCVpp [8]: 1 µg/mL
- Neutralizing activity (IC50), control pseudotype [9]: > 50 µg/mL
